From ChEMBL document CHEMBL1147685, “Synthesis and SAR of 1,9-dihydro-9-hydroxypyrazolo[3,4-b]quinolin-4-ones as novel, selective c-Jun N-terminal kinase inhibitors” (Bioorg Med Chem Lett, 2006)

Chains of the proteins cited; added tags and fusions are not shown. Lines headed by an entry give the natural chain unless they say otherwise; changes in a name come on top.
UniProt P45983: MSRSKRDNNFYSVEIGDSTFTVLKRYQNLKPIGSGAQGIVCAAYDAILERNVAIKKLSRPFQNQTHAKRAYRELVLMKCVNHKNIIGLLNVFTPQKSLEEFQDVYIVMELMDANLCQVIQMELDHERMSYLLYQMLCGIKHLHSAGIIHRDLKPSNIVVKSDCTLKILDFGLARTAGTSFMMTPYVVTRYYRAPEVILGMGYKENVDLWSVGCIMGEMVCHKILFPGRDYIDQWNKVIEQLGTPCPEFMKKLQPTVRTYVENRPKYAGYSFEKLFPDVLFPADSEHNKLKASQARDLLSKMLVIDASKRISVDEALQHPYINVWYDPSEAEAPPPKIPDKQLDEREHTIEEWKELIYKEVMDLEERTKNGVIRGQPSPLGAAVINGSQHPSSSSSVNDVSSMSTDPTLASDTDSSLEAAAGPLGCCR

Molecular target: Mitogen-activated protein kinase 8 (Homo sapiens, UniProt P45983)
Test: Inhibition of JNK1

IC50: 1.22 µM
Compound: Cc1nn(C)c2c1c(=O)c1cc(Cl)ccc1n2O
